Protein sequences, listed by entry. Tags and fused reporters are not part of them. Lines headed by an entry give the natural chain unless they say otherwise; changes in a name come on top.
UniProt Q9UHD2: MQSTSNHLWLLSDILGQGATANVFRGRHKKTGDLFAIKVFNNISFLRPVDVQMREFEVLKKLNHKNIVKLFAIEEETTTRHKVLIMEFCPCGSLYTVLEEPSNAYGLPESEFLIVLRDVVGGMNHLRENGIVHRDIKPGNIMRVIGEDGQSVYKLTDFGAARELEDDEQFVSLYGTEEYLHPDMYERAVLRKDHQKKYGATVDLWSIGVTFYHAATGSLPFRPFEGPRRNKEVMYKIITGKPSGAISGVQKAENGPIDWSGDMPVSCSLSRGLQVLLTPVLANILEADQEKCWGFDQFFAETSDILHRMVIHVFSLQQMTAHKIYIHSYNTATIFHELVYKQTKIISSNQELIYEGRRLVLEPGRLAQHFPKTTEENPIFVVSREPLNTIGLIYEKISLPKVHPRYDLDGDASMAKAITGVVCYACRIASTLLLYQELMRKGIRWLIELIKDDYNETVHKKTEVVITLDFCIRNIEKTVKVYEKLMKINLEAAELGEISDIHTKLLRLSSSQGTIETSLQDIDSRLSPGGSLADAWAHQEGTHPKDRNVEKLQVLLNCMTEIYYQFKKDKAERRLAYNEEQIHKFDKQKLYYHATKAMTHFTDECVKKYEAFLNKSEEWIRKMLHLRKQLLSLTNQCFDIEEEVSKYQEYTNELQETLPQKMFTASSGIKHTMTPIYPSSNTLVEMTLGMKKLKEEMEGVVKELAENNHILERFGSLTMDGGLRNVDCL
UniProt Q14164: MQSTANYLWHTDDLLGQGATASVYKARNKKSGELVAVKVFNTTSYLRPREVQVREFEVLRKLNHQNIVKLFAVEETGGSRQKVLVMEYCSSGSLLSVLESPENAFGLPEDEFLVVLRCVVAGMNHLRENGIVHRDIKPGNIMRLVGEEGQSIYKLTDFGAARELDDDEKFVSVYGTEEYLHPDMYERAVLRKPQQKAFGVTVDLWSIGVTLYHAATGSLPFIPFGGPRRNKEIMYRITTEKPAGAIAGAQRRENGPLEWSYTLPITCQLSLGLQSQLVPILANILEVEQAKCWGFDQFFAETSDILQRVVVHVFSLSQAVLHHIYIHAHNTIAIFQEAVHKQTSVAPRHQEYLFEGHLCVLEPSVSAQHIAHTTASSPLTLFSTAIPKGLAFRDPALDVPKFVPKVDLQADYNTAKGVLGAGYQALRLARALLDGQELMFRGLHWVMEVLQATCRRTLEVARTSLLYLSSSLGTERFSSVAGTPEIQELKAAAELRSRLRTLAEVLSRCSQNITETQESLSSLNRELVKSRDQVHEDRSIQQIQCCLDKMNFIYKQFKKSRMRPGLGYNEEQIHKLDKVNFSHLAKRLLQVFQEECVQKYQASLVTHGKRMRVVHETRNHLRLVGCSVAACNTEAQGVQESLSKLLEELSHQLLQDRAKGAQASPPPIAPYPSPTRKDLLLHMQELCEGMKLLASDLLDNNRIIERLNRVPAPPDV

pIC50: −log10 of the molar value.
How the values were obtained:
TBK1 = TBK1 (Homo sapiens (Human), UniProt Q9UHD2); experiment: TR-FRET enzymatic assay, phosphorylation of biotinylated serine/threonine peptide substrate (TBK1); settings: read-out: TBK1-IC50; full length recombinant TBK1, 2×Km ATP (40-80 μM), 1 μM peptide, 240 minutes at 25° C.; geometric mean of minimum four determinations
IKKε = IKKε (Homo sapiens (Human), UniProt Q14164); experiment: TR-FRET enzymatic assay, phosphorylation of biotinylated serine/threonine peptide substrate (IKKε); type: biochemical; settings: full length recombinant IKKε at 0.3 nM, 2×Km ATP (40-80 μM), 1 μM peptide, 240 minutes at 25° C.; geometric mean of minimum four determinations
Source text: Biological Assay for TBK1 and IKKε:

Substance	pIC50 (TBK1)	pIC50 (IKKε)
5-(6-(1,4-dioxaspiro[4.5]dec-7-en-8-yl)-7H-pyrrolo[2,3-d]pyrimidin-4-yl)-2-((1-(2-hydroxyacetyl)piperidin-4-yl)oxy)benzonitrile [Example 175]	8.84	–
5-(6-(4-(4-(2,2-difluoroethyl)piperazin-1-yl)phenyl)-7H-pyrrolo[2,3-d]pyrimidin-4-yl)-2-((1-(2-hydroxyacetyl)piperidin-4-yl)oxy)benzonitrile [Example 264]	–	8.58
5-(6-(6-aminopyrazin-2-yl)-7H-pyrrolo[2,3-d]pyrimidin-4-yl)-2-((tetrahydro-2H-pyran-4-yl)oxy)benzonitrile [Example 269]	7.49	7.33
